# Results from patent publication US20150202186A1, “CYSTATHIONINE-(gamma)-LYASE (CSE) INHIBITORS FOR TREATING PAIN” (SOVA PHARMACEUTICALS, INC., priority 2014, published 2015).
# pIC50: −log10 of the molar value.
# Molecular target: recombinant CSE (cystathionine-γ-lyase) (UniProt P32929)
# Assay: CSE In Vitro Assay
# Conditions: recombinant CSE 20 ug/ml, 50 uM PLP, DL-Homocysteine substrate, 3 hours at 37° C., absorbance at 671 nm
row,pIC50,SMILES
1,> 4.60,CC(C)=NN(C)c1nnn[nH]1 [Compound 37]
2,> 4.60,CC/C(C)=N/Nc1nnn[nH]1 [Compound 34]
3,< 4.00,C#C[C@H](N)c1nc(N)n[nH]1 [Compound 6]
4,4.00 to 4.60,C#CC[C@H](N)C(=O)NS(C)(=O)=O [Compound 9]
5,4.00 to 4.60,CNc1ccc(/C=N/N(C)c2nnn[nH]2)cc1 [Compound 36]
6,> 4.60,Clc1ccc(/C=N/Nc2nnn[nH]2)cc1 [Compound 29]
7,< 4.00,C#CC[C@H](N)c1nc(C(F)(F)F)n[nH]1 [Compound 5]
8,4.00 to 4.60,C#CC[C@H](N)C(=O)Nc1nn[nH]n1 [Compound 7]
9,> 4.60,C1CCC(=NNc2nnn[nH]2)CC1 [Compound 32]
10,< 4.00,CCN(N)c1ncn[nH]1 [Compound 39]
11,< 4.00,CCN(N)C(=O)Nc1nnn[nH]1 [Compound 42]
12,< 4.00,CN(C)CCN(N)c1nnn[nH]1 [Compound 11]
13,> 4.60,CNCCCN(N)c1nnn[nH]1 [Compound 24]
14,> 4.60,C1CCC(=NNc2nnn[nH]2)C1 [Compound 33]
15,< 4.00,COCCCN(N)c1nnn[nH]1 [Compound 14]
16,< 4.00,CCN(N)C(=O)NS(=O)(=O)c1ccccc1 [Compound 43]
17,> 4.60,C#CC[C@H](N)c1ncn[nH]1 [Compound 4]
18,> 4.60,C#CC[C@H](N)c1nnn[nH]1 [Compound 2]
19,< 4.00,NN(Cc1ccccc1)c1nnn[nH]1 [Compound 17]
20,4.00 to 4.60,C(=N\Nc1nnn[nH]1)/c1ccccc1 [Compound 26]
21,4.00 to 4.60,CN(N)c1noc(=O)[nH]1 [Compound 40]
22,4.00 to 4.60,CN(C)CCCN(N)c1nnn[nH]1 [Compound 10]
23,4.00 to 4.60,C#CC[C@H](N)C(=O)NS(=O)(=O)c1ccccc1 [Compound 8]
24,< 4.00,Clc1ccc(/C=N/Nc2nnn[nH]2)c(Cl)c1 [Compound 28]
25,> 4.60,C/C(=N\Nc1nnn[nH]1)c1ccc(N(C)C)cc1 [Compound 31]
26,< 4.00,CC(C)CN(N)c1nnn[nH]1 [Compound 19]
27,> 4.60,C#CC[C@H](N)c1noc(=O)[nH]1 [Compound 3]
28,< 4.00,CCN(N)C(=O)c1nnn[nH]1 [Compound 41]
29,4.00 to 4.60,CN(C)c1ccc(/C=N/Nc2nnn[nH]2)cc1 [Compound 27]

row,SMILES,pIC50
1,NCCN(N)c1nnn[nH]1 [Compound 22],> 4.60
2,N#CCC(N)c1nnn[nH]1 (centres unmarked) [Compound 1],< 4.00
3,CNCCN(N)c1nnn[nH]1 [Compound 23],4.00 to 4.60
4,C#CCN(N)c1nnn[nH]1 [Compound 12],> 4.60
5,NCCCN(N)c1nnn[nH]1 [Compound 21],> 4.60
6,CCCN(N)c1nnn[nH]1 [Compound 16],4.00 to 4.60
7,CN(N)c1nnn[nH]1 [Compound 20],> 4.60
8,CC(C)=NNc1nnn[nH]1 [Compound 30],> 4.60
9,CC(C)N(N)c1nnn[nH]1 [Compound 18],< 4.00
